Results: PubChem BioAssay AID848 (Columbia University Molecular Screening Center, 2007)
The entries are a selection whose mix differs from that of the whole data set. Active and inactive are the calls of the source.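 Rule for the calls: active = cell count reduction exceeding the screen mean by over 5 SD, scaled to untreated wells per plate (cut at about 78% in these data); inactive = the rest.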

Experiment: cytotoxicity in TNFa-stimulated HUVEC, primary screen, cytotoxicity control for VCAM1 expression modulator project, imaging, Hoechst nuclei count (AID 848);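 note: cells counted after 24 h of TNF alpha exposure following the 1 h pretreatment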
Settings: HUVEC TNFalpha-stimulated, at 2 µM, stronger effect = higher value

Compound	cell count reduction
CP(=S)(Nn1cnnc1)Oc1ccccc1 (stereo not given)	inactive: -7.9%
CP(=O)(NC(=O)Nc1ccccc1)Oc1ccccc1 (stereo not given)	inactive: -35.4%
CP(=O)(Nc1ccccn1)Oc1ccc(Cl)cc1 (stereo not given)	inactive: -6.2%
COc1ccc(OP(C)(=O)Nc2cccc(F)c2)cc1 (stereo not given)	inactive: -30.9%
Cc1cc(C)cc(OP(C)(=O)Nc2ccc(C)cc2C)c1 (stereo not given)	inactive: -31.9%
Cc1ccc(C)c(NP(C)(=O)Oc2ccccc2)c1 (stereo not given)	inactive: -7.5%
Cc1cc(C)cc(OP(C)(=O)Nc2ccccn2)c1 (stereo not given)	inactive: -2.9%
Cc1nc2ccc3ccccc3c2s1.O=[N+]([O-])c1cc([N+](=O)[O-])c(O)c([N+](=O)[O-])c1	inactive: -3.9%
COc1ccccc1OP(C)(=O)Nc1c(C)cccc1C (stereo not given)	inactive: -11.6%
COc1ccc(OP(C)(=O)Nc2cccc(Br)c2)cc1 (stereo not given)	inactive: -15.7%
CN(C)CCOC(=O)C(O)(c1ccccc1)C1CCCCC1 (stereo not given)	inactive: 8.5%
CCOP(C)(=S)SCC(=O)NC(C)(CC)C(=O)O (stereo not given)	inactive: -21.5%
CP(=O)(Nc1ccc2c(c1)OCCO2)Oc1ccccc1 (stereo not given)	inactive: -9.2%
CP(=O)(Nc1ccccc1F)Oc1ccccc1 (stereo not given)	inactive: -25.5%
CCN(CC)CCCOC(=O)C(O)(c1ccccc1)C1CCCCC1 (stereo not given)	inactive: 0%
CP(=O)(Nc1ccccc1)Oc1ccc(F)cc1 (stereo not given)	inactive: -11.3%
COc1ccccc1OP(C)(=O)Nc1ccc(C)c(C)c1 (stereo not given)	inactive: -27.3%
Cc1nc2ccc3ccccc3c2o1.O=[N+]([O-])c1cc([N+](=O)[O-])c(O)c([N+](=O)[O-])c1	inactive: -14.3%
COc1ccc(OP(C)(=O)Nc2ccccn2)cc1 (stereo not given)	inactive: -7.9%
CN(C)CCOC(=O)C(O)(c1ccccc1)C1CCCC1 (stereo not given)	inactive: -23.6%
Cc1c(NP(C)(=O)Oc2ccc(C(C)C)cc2)c(=O)n(-c2ccccc2)n1C (stereo not given)	inactive: 0%
CP(=O)(Nc1ccccn1)Oc1ccccc1 (stereo not given)	inactive: -36%
COc1ccccc1OP(C)(=O)Nc1ccc(C)cc1C (stereo not given)	inactive: -38.2%
CCc1ccc(OP(C)(=O)O)cc1	inactive: -38.9%
CCN(CC)CC(O)COC(=O)C(O)(c1ccccc1)C1CCCCC1 (stereo not given)	inactive: -33.6%
COc1ccccc1OP(C)(=O)Nc1c(C)n(C)n(-c2ccccc2)c1=O (stereo not given)	inactive: -40.5%
CP(=O)(Oc1ccccc1)N1CCOC1=O (stereo not given)	inactive: 3.4%
CC(C)(C)c1ccc(OP(C)(=O)O)cc1	inactive: -31%
CP(=O)(Nc1ccc(Cl)cc1)Oc1ccc(F)cc1 (stereo not given)	inactive: -17.2%
CP(=O)(OC12CC3CC(CC(C3)C1)C2)OC12CC3CC(CC(C3)C1)C2	inactive: 1.4%
